# Ab-14 light chain CDR variants: yeast mating affinities

Reference: Li et al. 2023, doi:10.1038/s41467-023-39022-2. File: FLAb, binding data.

Antigen: PDVDLGDISGINAS, a 14-residue peptide of the SARS-CoV-2 spike HR2 region.

Parent scFv Ab-14: VH joined to VL by the linker GGGGSGGGGSGGGGS. Changes lie in the light chain CDRs alone.
VH: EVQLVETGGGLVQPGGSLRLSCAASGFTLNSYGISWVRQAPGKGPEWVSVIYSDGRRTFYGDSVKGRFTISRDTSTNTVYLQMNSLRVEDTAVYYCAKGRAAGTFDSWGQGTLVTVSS
VL: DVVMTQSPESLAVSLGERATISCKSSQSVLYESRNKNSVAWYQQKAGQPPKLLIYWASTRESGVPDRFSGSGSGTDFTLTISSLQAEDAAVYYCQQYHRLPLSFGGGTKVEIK

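The parent was found by panning a naive human phage display library on the peptide. These sequences belong to a second round, designed from the earlier measurements on random variants of the parent. Their group label is 14L_En_Gen (En: ensemble of fine-tuned language models; Gen: genetic algorithm). AlphaSeq pools MATa yeast showing the antibodies with MATalpha yeast showing the peptide. Binding brings cells together so that they mate, and sequencing counts the barcode pairs among the diploids. A regression on co-assayed BCL2-family reference pairs converts the normalised counts of each replicate to an apparent Kd. The assay was run in six technical replicates.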

Variants are written as CDR1, CDR2 and CDR3 of the light chain (limits as in the source). Parent: KSSQSVLYESRNKNSVA, WASTRES, QQYHRLPLS.
Numbers give log10(Kd / nM), so 0 is 1 nM and 3 is 1 µM. Smaller is tighter.
An entry "nd" has no value in the source: the pair was not observed among the diploids in that replicate. This suggests poor binding but is not conclusive.

| CDR-L1 | CDR-L2 | CDR-L3 | log10 Kd, replicates | signal with controls |
|---|---|---|---|---|
| KLSGLMQSSKFAKDNVA | ENNTREA | QQYDRLPLS | nd / nd / nd / nd / nd / nd | 0/18 |
| MISQLYNMGQFAINSVA | QAQTRNE | QQYDRLPLT | 3.25 / 2.33 / 1.97 / 2.40 / 2.29 / 2.39 | 0/18 |
| KLVNFMNRGTHHTSNIA | DAQNRTD | QQYARLPLA | 0.57 / 0.44 / 1.05 / 0.75 / 0.93 / 0.62 | 0/18 |
| NISHFMDTTAKHNNNVA | EMEMREE | QQYHHLPLS | 0.37 / 0.15 / 0.10 / 0.05 / 0.24 / 0.25 | 2/18 (3.04) |
| TIGSTLMYGMRNRSNVA | EVSERLN | QQYDRLPLL | nd / 2.80 / 0.89 / 1.41 / nd / 2.77 | 1/18 (2.27) |
| MLSSVLHMLGVKQNSIA | DLVLRAN | QQYARLPLM | nd / nd / nd / nd / nd / nd | 0/18 |
| KLTATMRFEQSKSNNIA | EVTTRSK | QQYYRLPLA | 0.71 / 0.47 / 0.40 / 0.99 / 0.47 / 1.00 | 0/18 |
| KIGMTLNQLMHHKNNVA | DLVTREQ | QQYHRLPLS | 0.16 / 0.32 / 0.04 / -0.02 / 0.26 / 0.38 | 1/18 (2.42) |
| TISQVMNTLTRHGNNVA | DLTEREM | QQYFRLPLS | 0.58 / 0.10 / 0.31 / 0.25 / 0.12 / 0.63 | 0/18 |
| MLSQMWALGMKVKNSVA | QASLRFN | QQYDRLPLI | nd / nd / nd / nd / 1.20 / nd | 1/18 (2.82) |
| MVSQLMLWGMHVKNSIA | EAVTRLN | QQYDRLPLF | 0.71 / 1.12 / 0.91 / 1.16 / 0.67 / 1.23 | 0/18 |
| HISMLTLQGMRHRNSVA | QMTTREN | QQYDRLPLM | 0.51 / 0.56 / 0.43 / 0.34 / 0.35 / 0.35 | 2/18 (2.08) |
| TISGIMQQMSHSKNNVA | EVSMRLD | QQYFRLPLE | 1.22 / 0.45 / 1.37 / 1.28 / 0.84 / 1.15 | 0/18 |
| MMSSLMGYESRHINNVA | QTSTRED | QQYDRLPLV | 0.45 / 0.37 / 0.19 / 0.19 / 0.22 / 0.68 | 2/18 (3.23) |
| MISQLMNMGQFAINSVA | QASIRNE | QQYDRLPLV | 1.41 / 1.60 / 1.79 / 2.20 / 2.18 / 1.86 | 3/18 (2.53) |
| KVSEFMRGLTQRKDSIA | DNVTRGN | QQYDRLPLS | nd / nd / 2.44 / nd / 2.54 / 2.26 | 0/18 |
| IVSQLMLWGLHAKNSIA | EAQTRLN | QQYDRLPLE | 0.15 / -0.15 / -0.34 / -0.42 / -0.26 / -0.11 | 0/18 |
| MISQVMNTLTREGNNVA | DLTEREK | QQYFRLPLS | 0.82 / 1.49 / 0.53 / 1.01 / 0.74 / 0.95 | 0/18 |
| KLYDMAAVTMQNIRNVA | DNSTREQ | QQYHRLPLS | 0.13 / 0.48 / 0.30 / -0.02 / 0.06 / 0.20 | 1/18 (1.90) |
| MMSQVTGMGMRHRNNVA | QTSTREP | QQYDRLPLV | 0.87 / 1.57 / 0.99 / 0.64 / 1.31 / 1.29 | 2/18 (2.99) |
| SISGFMKSLSAHANSVA | DMTNREN | QQYNRLPLS | 0.55 / 0.60 / 0.29 / 0.47 / 1.11 / 0.74 | 1/18 (2.82) |
| MISQLQNMGQFAINSVA | QASERSE | QQYDRLPLI | 1.05 / 0.94 / 0.91 / 0.80 / 1.12 / 0.99 | 1/18 (2.58) |
| KISQMVRVGSTKNNSIA | EEETRAD | QQYHRLPLS | 0.79 / 0.58 / 0.49 / 0.58 / 0.49 / 0.86 | 1/18 (1.89) |
| QLSMLTGHVSMSKNNVA | EMETRLN | QQYDRLPLS | 1.21 / 0.68 / 0.91 / 1.09 / 0.89 / 0.89 | 1/18 (2.33) |
| KIGMTLNTLMHQKNNVA | DLVMREM | QQYHRLPLS | 0.97 / 0.49 / 0.50 / 0.72 / 0.73 / 0.94 | 2/18 (2.80) |
| KVSEFMRGLMQRQDSIA | DNVTRNS | QQYDRLPLS | 2.01 / 1.99 / 2.43 / 2.14 / 3.27 / nd | 4/18 (3.09) |
| KLTMITGTEKVIGNNVA | EMETREN | QQYNRLPLA | -0.10 / -0.44 / -0.12 / -0.36 / -0.46 / 0.12 | 0/18 |
| KIGMTLNQLMHKKNNVA | DLVTRET | QQYFRLPLS | 0.59 / 0.15 / 0.69 / 0.06 / 0.32 / 0.78 | 0/18 |
| KVSYFNEQVTKKGSNVA | DNETREE | QQYFRLPLS | 0.34 / 0.22 / 0.08 / 0.45 / 0.07 / 0.42 | 0/18 |
| MVNGIMDHLSKNSNSVA | ETVTREE | QQYDRLPLS | 0.87 / 0.90 / 0.81 / 0.60 / 0.84 / 0.96 | 2/18 (3.41) |
| MMSQVTALGQRHRNNVA | QTSTREE | QQYDRLPLV | 0.53 / 0.56 / 0.46 / 0.74 / 0.30 / 0.57 | 2/18 (2.96) |
| KIGMTLNTLEHKQNNVA | DLVNREN | QQYFRLPLS | -0.13 / -0.39 / 0.42 / -0.07 / -0.57 / -0.15 | 0/18 |
| IISQLYNMGQFAINSVA | QASIRCN | QQYDRLPLA | nd / nd / nd / nd / nd / nd | 0/18 |
| IVSQLMLWGYTAKNSIA | EAETRIN | QQYHRLPLF | 0.61 / 0.44 / 0.28 / 0.97 / 0.83 / 0.94 | 1/18 (2.55) |
| MMSQVTGQGTRHRNNVA | QTSTREP | QQYDRLPLM | 0.92 / 0.60 / 1.02 / 0.58 / 0.77 / 0.95 | 2/18 (1.91) |
| MIYAANMELGRAANSIA | DNVTRYD | QQYERLPLS | nd / nd / nd / 2.68 / nd / nd | 0/18 |
| TISQMTSLFSQTINNVA | EVSTREQ | QQYDRLPLQ | 0.44 / 0.47 / 0.03 / 0.83 / 0.79 / 0.87 | 0/18 |
| KLTTVTGTEKVHGNNVA | EMETRER | QQYNRLPLA | 0.35 / 0.26 / 0.10 / 0.20 / 0.04 / 0.24 | 0/18 |
| MVNSIMDHLSKQTNNVA | EMTTREE | QQYDRLPLS | 1.25 / 1.26 / 0.83 / 1.21 / 1.11 / 1.13 | 0/18 |
| KLVNFMNRGTHHTSNIA | DAVNRID | QQYYRLPLA | 0.45 / 0.65 / -0.06 / -0.16 / 0.13 / 0.35 | 0/18 |
| MISQLYNMGQFAINSVA | QASTRNQ | QQYDRLPLM | 1.32 / 0.97 / 1.15 / 0.98 / 0.91 / 0.93 | 2/18 (2.26) |
| KIGMTLNTLMHTKNNVA | DLVTREE | QQYHRLPLS | 1.05 / 0.73 / 0.40 / 1.09 / 0.75 / 1.10 | 0/18 |
| KISQMVRVGSTHKNSIA | EEQTRAK | QQYHRLPLA | 1.93 / 2.76 / 2.07 / 1.37 / 1.43 / 1.77 | 3/18 (2.61) |
| MISQVMGLNNMYKYSVA | QAETRLN | QQYDHLPLS | 2.97 / 2.26 / 2.29 / 2.82 / 2.05 / 1.60 | 1/18 (2.60) |
| MISQLMNMGQFAINSVA | QASLRCN | QQYFRLPLM | nd / nd / nd / nd / 1.97 / 2.07 | 0/18 |
| KISQMVRVGSTHSNSIA | EEATRAD | QQYHRLPLS | 0.07 / 0.28 / 0.19 / -0.07 / 0.06 / 0.13 | 3/18 (2.33) |
| MISQLTNMGTFAINSVA | QASLRNE | QQYDRLPLM | 2.13 / 2.03 / 1.29 / 2.37 / 1.76 / 1.87 | 0/18 |
| MMSQVTMSGMRHRNNVA | QTSTREP | QQYDRLPLI | 1.52 / 0.92 / 1.03 / 0.81 / 1.14 / 0.83 | 2/18 (3.36) |
| TISQMTSLFSQTINNVA | EVSTREA | QQYDRLPLV | 0.56 / 0.42 / 0.26 / 0.37 / 0.54 / 0.51 | 0/18 |
| TISQLHNMGTFAINSVA | QAEIRNA | QQYDRLPLM | 1.74 / 1.48 / 1.20 / 2.20 / 2.14 / 1.78 | 0/18 |
| HMSMLTMMGMRHMNSVA | QMTTREN | QQYDRLPLM | nd / nd / nd / nd / nd / 1.96 | 0/18 |
| KLSMTSEMEHKNRNSVA | ELVTRMN | QQYNRLPLS | 0.38 / 0.40 / 0.66 / 0.27 / 0.58 / 0.97 | 2/18 (2.66) |

Extract of 3 entries:

CDR-L1,CDR-L2,CDR-L3,"log10 Kd, replicates",signal with controls
KLVNFMNRGTHHTSNIA,DAQNRTD,QQYARLPLA,0.57 / 0.44 / 1.05 / 0.75 / 0.93 / 0.62,0/18
SISGFMKSLSAHANSVA,DMTNREN,QQYNRLPLS,0.55 / 0.60 / 0.29 / 0.47 / 1.11 / 0.74,1/18 (2.82)
NISHFMDTTAKHNNNVA,EMEMREE,QQYHHLPLS,0.37 / 0.15 / 0.10 / 0.05 / 0.24 / 0.25,2/18 (3.04)

As a blank, each scFv also met three strains without target: over all light chain designs, 4% of these pairings were detected, typically at 2.64 and seldom below 1.59. Also given: how often the same scFv was detected with the empty control strains, with their mean in brackets.
The authors' rule: three or more of the six replicates give a measured affinity, fewer mean a poor binder.
Values of this round are not directly comparable with the first-round values of the same sequences.